Earlier results on one sequence are cited in patent US12209143B2, “Versatile peptide and protein macrocyclization and multimerization with diels-alder cycloadditions” (The University of Chicago, priority 2019, dated 2025).

For this series the following is noted: in vivo; cited from earlier work.

A value given as a limit tells only on which side of the number the result lay.

Take SCFGGRMDRIGAQSGLGCNSF [ANP-WT]: the circulating half-life is reported as below 5 min.
